Results on 1 sequence are retold here after ChEMBL document CHEMBL3046627, “Synthesis and in vitro study of antibacterial, antifungal activities of some novel bisquinolines” (2013).

This assay concerns Escherichia coli. Briefly: Antibacterial activity against Escherichia coli 319 assessed as growth inhibition after 24 hr by agar dilution method. The assay is classed as functional. A general note: In agar dilution, organisms are placed on agar that contains the substance at set levels.

For GENTAMICIN, the minimum inhibitory concentration (MIC) was 0.5 µg/mL.

What is called MIC is the lowest concentration that inhibits growth of the organism.
